Measurements from PubChem BioAssay AID2267 (National Center for Advancing Translational Sciences (NCATS), 2010).
The list shows a part of the results, in another mix than the full data. Results filed as inconclusive are left out. Calls of active or inactive are those of the source. The call rests on the fitted dose curve; in most records, active means well fitted inhibition curve with a large enough effect; inconclusive means small, poorly fitted or top-dose-only effect, or effect the other way; inactive means flat fitted curve, though single readings scatter.

Protein sequences, listed by entry. Tags and fused reporters are not part of them.
UniProt P14618, whole entry, looked up: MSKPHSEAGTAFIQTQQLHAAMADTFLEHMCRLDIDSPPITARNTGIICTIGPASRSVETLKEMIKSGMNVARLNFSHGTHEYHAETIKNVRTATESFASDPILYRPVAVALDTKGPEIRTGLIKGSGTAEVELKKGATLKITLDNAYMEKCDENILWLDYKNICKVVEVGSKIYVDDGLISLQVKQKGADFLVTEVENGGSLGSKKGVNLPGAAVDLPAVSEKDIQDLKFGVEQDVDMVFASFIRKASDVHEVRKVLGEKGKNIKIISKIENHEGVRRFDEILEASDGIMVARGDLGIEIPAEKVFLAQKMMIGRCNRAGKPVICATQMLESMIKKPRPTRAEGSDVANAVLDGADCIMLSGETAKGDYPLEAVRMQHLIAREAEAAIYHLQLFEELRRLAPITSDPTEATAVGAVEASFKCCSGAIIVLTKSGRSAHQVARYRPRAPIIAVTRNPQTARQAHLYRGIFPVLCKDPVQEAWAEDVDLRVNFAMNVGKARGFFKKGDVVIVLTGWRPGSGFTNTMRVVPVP

What follows are compounds tested against Pyruvate kinase PKM (Homo sapiens) (UniProt P14618) (assay: Secondary assay for Inhibitors of Human Pyruvate Kinase M2 isoform). Details: purified hPK-M2, LDH-coupled NADH fluorescence kinetic; at 57.5 µM (top of the series).
Source text: NIH Chemical Genomics Center [NCGC] Matthew G. Vander Heiden, M.D., Ph.D. [Harvard Medical School, 77 Avenue Louis Pasteur, Boston, MA 02115] MLPCN Grant: 1 R03 MH085679-01 NCGC Assay Overview: Human pyruvate kinase muscle 2 (hPK-M2)enzyme was supplied as a highly purified (>95% pure) preparation from Harvard Medical School and a secondary assay was used to evaluate compounds. This assay couples the formation of pyruvate from hPK-M2 using lactate dehydrogenase (LDH) and NADH. The depletion of NADH is followed in a fluorescent-based kinetic assay that follows the formation of pyruvate to lactate, as catalyzed LDH (described by Hannaert et al., 2002)1 Pyruvate kinase substrates, PEP and ADP, were present in the assay at 0.1 mM and 4 mM respectively. In this kinetic assay initial rates were determined by following the fluorescence of NADH depletion.
NCGC Assay Protocol Summary: Three uL of substrate mix (final concentration, 50 mM Tris-Cl pH 8.0, 200 mM KCl, 15 mM MgCl2, 0.1 mM PEP, 4.0 mM ADP, and 0.2 mM NADH) was dispensed into black-solid 1536 well plates. 23 nL of compounds were delivered by a pin tool and 1 uL of enzyme mix (final concentrations, 10 nM hPK-M2 and 1 uM of LDH) was added. Plates were immediately placed in ViewLux (Perkin Elmer) and NADH fluorescence was determined at 30 second exposure intervals for between 3 and 6 minutes. Data were normalized to the basal signal.

Row | Structure (SMILES) | activity change, negative = inhibition
1 | Nc1ncnc2c1ncn2C1OC(COP(=O)(O)O)C(O)C1O (configuration not stated) | inactive: -9.03%
2 | Nc1ncnc2c1ncn2[C@@H]1O[C@H](COP(=O)(O)O)[C@@H](O)[C@H]1O | inactive: -8.96%
